# Literature values in US9631180B2, “Recombinant manganese oxidase” (OREGON HEALTH & SCIENCE UNIVERSITY, priority 2013, dated 2017).
# System: B. licheniformis CotA
# Details: described in Koschorreck K et al, 2008; cited from earlier work
compound,measurement,value
"CCn1c(=NN=c2sc3cc(S(=O)(=O)O)ccc3n2CC)sc2cc(S(=O)(=O)O)ccc21 [ABTS, 2,2′-azino-bis(3-ethylbenzthiazoline-6-sulphonic acid)]",Km,124 µM
